The source of these data is article PMC7805210, “Study on suitable analysis method for HIV-1 non-catalytic integrase inhibitor” (Virology Journal, 2021).

The structures appear in SMILES notation.

The data set has as its system HIV-1 AD8 strain. As to the kind of experiment: Antiviral activity test using the TZM-bl cell luciferase system.

In the case of `C[C@@H]1CCO[C@H]2Cn3cc(C(=O)NCc4ccc(F)cc4F)c(=O)c(O)c3C(=O)N12` [DTG, Dolutegravir], the “SI value (CC50/EC50)” value is on record as > 31,250.00.
